Results on 1 molecule are retold here after PMC11272598, “RG7774 (Vicasinabin), an orally bioavailable cannabinoid receptor 2 (CB2R) agonist, decreases retinal vascular permeability, leukocyte adhesion, and ocular inflammation in animal models” (Frontiers in Pharmacology, 2024).

Sequences of proteins named here, by UniProt entry; tags and fusion partners are left off.
UniProt P47746, whole entry: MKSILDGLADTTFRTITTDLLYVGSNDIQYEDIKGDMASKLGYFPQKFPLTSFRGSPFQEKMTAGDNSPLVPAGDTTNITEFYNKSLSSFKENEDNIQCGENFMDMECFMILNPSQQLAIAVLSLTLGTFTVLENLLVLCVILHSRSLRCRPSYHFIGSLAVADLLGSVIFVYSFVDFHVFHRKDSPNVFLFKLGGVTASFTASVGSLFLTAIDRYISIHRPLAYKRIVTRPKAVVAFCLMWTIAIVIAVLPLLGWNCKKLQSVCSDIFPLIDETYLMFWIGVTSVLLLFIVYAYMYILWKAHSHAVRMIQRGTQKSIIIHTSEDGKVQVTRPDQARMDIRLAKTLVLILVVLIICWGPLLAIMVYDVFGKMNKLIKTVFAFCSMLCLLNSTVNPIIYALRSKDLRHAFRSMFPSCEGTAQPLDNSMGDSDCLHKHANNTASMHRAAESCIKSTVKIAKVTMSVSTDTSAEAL

The target of this experiment is Mouse CB1R (Mus musculus, UniProt P47746). The experiment in a line: Competitive binding assay in mouse brain membranes, [^3H]-CP55940. The arrangement: mouse brain membranes expressing endogenous CB1R; from tissue; host or cells: mouse brain membranes. How it is done: Mouse brain was resuspended in 2 mM Tris–EDTA, 320 mM sucrose, 5 mM MgCl2 (pH 7.4), homogenized using a glass potter, and centrifuged 3 times, each at 1000 g for 10 min.

For orientation: inhibition means the change of the read-out against control, counted positive when it falls. For the molecule `Cc1c(C(=O)NN2CCCCC2)nn(-c2ccc(Cl)cc2Cl)c1-c1ccc(Cl)cc1` [Rimonabant], the “Mean ± SEM % inhibition of control, Mouse CB1R (competitive binding assay)” value (positive control 1 µM) is given as 111.2 ± 5.6%. The inhibition at 1 µM (read-out: Mean ± SEM % inhibition of control, Mouse CB1R (competitive binding assay), positive control 1 µM) stood at 112%.
